Assay results as given in paper PMC9525273.

What was measured:
[1] = biological target: T1, TgATP4^WT (membranes from T. gondii tachyzoites) (Toxoplasma gondii, UniProt B9QMJ0); test: Membrane ATPase assay, ATP4-associated (Na+-dependent) ATPase activity; assay type: biochemical; conditions: TgATP4WT vs PfATP4WT; 10 min
T1 sequence (B9QMJ0 1-1338): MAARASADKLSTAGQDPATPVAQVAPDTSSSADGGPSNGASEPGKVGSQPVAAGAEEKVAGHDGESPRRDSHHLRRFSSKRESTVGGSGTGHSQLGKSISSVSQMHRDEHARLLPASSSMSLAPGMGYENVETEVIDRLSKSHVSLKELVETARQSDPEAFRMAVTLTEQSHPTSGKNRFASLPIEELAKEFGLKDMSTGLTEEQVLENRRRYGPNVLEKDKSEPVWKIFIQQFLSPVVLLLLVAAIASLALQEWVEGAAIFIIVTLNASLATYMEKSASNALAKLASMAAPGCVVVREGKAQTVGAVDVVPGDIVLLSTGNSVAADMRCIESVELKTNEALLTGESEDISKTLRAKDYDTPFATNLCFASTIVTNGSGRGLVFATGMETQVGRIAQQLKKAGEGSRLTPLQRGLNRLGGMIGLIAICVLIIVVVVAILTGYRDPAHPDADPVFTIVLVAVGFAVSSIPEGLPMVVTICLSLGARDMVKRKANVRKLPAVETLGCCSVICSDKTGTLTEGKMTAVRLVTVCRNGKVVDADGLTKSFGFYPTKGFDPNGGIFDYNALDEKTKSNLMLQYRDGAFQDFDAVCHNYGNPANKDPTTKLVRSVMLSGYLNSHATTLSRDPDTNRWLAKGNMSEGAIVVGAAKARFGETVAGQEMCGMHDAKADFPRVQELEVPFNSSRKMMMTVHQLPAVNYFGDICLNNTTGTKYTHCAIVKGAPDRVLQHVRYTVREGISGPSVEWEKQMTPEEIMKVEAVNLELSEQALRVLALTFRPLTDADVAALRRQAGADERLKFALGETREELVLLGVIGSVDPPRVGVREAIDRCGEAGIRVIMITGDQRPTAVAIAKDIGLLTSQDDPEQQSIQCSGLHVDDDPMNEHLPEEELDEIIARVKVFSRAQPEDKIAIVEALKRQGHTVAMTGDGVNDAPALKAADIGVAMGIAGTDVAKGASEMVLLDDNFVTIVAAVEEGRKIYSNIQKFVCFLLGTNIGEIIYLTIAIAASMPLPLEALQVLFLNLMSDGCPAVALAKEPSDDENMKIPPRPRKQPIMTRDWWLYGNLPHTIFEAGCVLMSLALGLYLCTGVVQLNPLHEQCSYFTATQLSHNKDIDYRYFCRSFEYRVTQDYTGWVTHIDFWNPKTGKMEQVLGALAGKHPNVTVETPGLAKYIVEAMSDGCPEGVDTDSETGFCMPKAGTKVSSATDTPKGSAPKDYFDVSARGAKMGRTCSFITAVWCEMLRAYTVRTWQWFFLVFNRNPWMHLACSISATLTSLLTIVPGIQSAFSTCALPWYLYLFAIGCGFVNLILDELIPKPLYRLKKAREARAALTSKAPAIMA
Description: (§1) Membranes from isolated P. falciparum or extracellular T. gondii parasites were prepared by lysing parasites in ice-cold deionized water containing a 1:500 dilution of Protease Inhibitor Cocktail Set III (Merck Millipore), then washing the membrane preparation three times in ice-cold deionized water (with protease inhibitors present for the first two washes)[15]. Protein concentrations in the membrane preparations were measured using a Bradford assay. The PiColorLock Gold Phosphate Detection System (Innova Biosciences) was used to measure the production of Pi from hydrolysis of ATP[15]. Membrane preparations were diluted in either a high Na^+ solution (yielding final conditions in the reactions of 150 mM NaCl, 20 mM KCl, 2 mM MgCl2, 50 mM Tris, pH 7.2) or a Na^+-free solution (yielding final conditions of 150 mM choline chloride, 20 mM KCl, 2 mM MgCl2, 50 mM Tris, pH 7.2) to achieve a total protein concentration of 50 μg/mL. Cipargamin, (+)-SJ733, or DMSO (solvent control) were added to give the concentrations stated in the relevant Figure legends. The reactions were performed at 37 °C, and were initiated by the addition of 1 mM ATP (Na2ATP۰3H2O; MP Biomedicals) and terminated 10 min later by adding 100 μL of reaction mixture (in duplicate) to 25 μL “Gold mix” in a 96-well plate. “Stabiliser” was added 3 min later, and the plates incubated at room temperature in the dark for 60 min before measuring absorbance at 635 nm. Background values (averaged from wells containing all components, but to which ATP was not added until after the membrane was exposed to Gold mix) were subtracted from the data. For each treatment, the ATPase activity associated with the (Na^+-dependent) PfATP4 and TgATP4 proteins was calculated by subtracting data obtained in the low Na^+ condition (containing only the 2 mM Na^+ introduced on addition of 1 mM Na2ATP) from that obtained in the high Na^+ condition.

NF54^CTL parasites = test: P. falciparum proliferation assay (72 h, flow cytometry, SYBR Green I/MitoTracker); assay type: cell-based; conditions: Plasmodium falciparum, NF54, NF54CTL parasites; individual experiments
Description: For the NF54-based lines and Dd2-B2-PfATP4^G358S and its parent, assays were initiated with cultures containing predominantly ring-stage parasites with a parasitaemia of 0.3% and a haematocrit of 1%. All assays using NF54 were performed in culture media containing 10% O + human serum. The duration of the assays was 72 h and the concentration of DMSO was <0.5% (v/v). Serial dilutions of the test compounds were performed using a Tecan D300e digital dispenser, with parasite cultures added manually. Parasite survival was assessed by flow cytometry on an Intellicyt iQue3 (Essen Bioscience), with 1× SYBR Green I (Invitrogen) and 200 nM MitoTracker Deep Red FM (Invitrogen) used to stain the nucleus and the mitochondria in live parasites, respectively. The gating strategy used to quantify parasite survival, performed using FlowJo version 10 (FlowJo LLC.), is illustrated in Supplementary Fig. 9. IC50 and IC90 values were calculated by linear interpolation of the dose-response data.

[2] = biological target: T2, PfATP4^WT (membranes from Dd2-Polδ parasites) (Plasmodium falciparum, UniProt A0A143ZZK9); test: Membrane ATPase assay, ATP4-associated (Na+-dependent) ATPase activity; assay type: biochemical; conditions: cell-free assays, against both PfATP4WT and TgATP4WT
T2 sequence (A0A143ZZK9 1-1264): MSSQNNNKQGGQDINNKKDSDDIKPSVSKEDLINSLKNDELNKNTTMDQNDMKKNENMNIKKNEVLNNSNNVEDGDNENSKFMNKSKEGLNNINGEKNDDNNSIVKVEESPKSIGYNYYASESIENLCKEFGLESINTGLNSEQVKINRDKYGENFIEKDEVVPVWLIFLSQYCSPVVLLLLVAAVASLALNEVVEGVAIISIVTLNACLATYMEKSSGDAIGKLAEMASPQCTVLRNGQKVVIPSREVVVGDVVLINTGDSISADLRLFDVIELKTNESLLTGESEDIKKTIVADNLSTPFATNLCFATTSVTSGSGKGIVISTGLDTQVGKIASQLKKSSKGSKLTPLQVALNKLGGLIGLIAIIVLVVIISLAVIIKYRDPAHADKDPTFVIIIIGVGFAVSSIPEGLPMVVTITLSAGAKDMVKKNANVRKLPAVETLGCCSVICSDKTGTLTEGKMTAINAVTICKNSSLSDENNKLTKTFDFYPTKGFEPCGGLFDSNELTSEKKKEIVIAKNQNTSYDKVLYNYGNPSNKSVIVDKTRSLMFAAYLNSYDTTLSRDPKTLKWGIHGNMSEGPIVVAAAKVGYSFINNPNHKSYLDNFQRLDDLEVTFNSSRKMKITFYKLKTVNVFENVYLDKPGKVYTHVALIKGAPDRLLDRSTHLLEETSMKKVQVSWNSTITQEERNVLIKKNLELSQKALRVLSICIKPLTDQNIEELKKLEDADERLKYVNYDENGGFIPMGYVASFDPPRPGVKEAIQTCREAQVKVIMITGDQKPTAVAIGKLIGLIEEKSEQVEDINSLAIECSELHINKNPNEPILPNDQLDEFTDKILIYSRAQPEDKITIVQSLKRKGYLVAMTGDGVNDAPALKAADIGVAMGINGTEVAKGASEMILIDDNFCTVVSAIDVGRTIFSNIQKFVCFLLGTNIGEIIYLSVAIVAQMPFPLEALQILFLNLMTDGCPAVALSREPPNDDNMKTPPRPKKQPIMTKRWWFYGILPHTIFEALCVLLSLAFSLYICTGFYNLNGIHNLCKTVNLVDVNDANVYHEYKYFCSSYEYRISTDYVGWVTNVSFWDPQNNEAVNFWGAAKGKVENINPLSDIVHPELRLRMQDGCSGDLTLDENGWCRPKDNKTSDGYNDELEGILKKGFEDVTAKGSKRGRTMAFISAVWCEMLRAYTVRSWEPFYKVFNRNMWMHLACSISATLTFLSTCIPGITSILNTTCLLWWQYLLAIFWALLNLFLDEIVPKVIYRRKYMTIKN
Description: as §1

In the case of `C[C@H]1Cc2c([nH]c3cc(Cl)c(F)cc23)[C@@]2(N1)C(=O)Nc1ccc(Cl)cc12` [Cipargamin], the “fold less sensitive to inhibition than PfATP4WT-associated ATPase activity” value [1] is reported as “about 3 fold”.

`N#Cc1cc(NC(=O)[C@H]2c3ccccc3C(=O)N(CC(F)(F)F)[C@@H]2c2cccnc2)ccc1F` [(+)-SJ733] was tested, and the IC90 (NF54^CTL parasites) was 159 nM, the “fold less potent than cipargamin” value [2] was ~ 2 fold and the “fold less sensitive to inhibition than PfATP4WT-associated ATPase activity” value [1] was “about 3 fold”.
